The source of these data is publication PMC4188581, “Break CDK2/Cyclin E1 Interface Allosterically with Small Peptides” (PLoS ONE, 2014).

The test has as its target CDK2 (Homo sapiens, UniProt P24941). Kind of test: Surface Plasmon Resonance (SPR) peptide binding assay. As to conditions: for Kd: without ATP.

With `CC(C)C[C@H](NC(=O)[C@H](C)NC(=O)[C@H](C)NC(=O)[C@@H](N)CC(=O)O)C(=O)N[C@H](C(=O)O)[C@@H](C)O` [DAALT, NH2-D-A-A-L-T-OH], the equilibrium dissociation constant (Kd) (in general, the free concentration of one partner at which half of the binding sites on the other are occupied at equilibrium, for simple one-to-one binding) was 470 nM.

`CC(C)C[C@H](NC(=O)[C@H](C)NC(=O)[C@H](C)NC(=O)[C@@H](N)[C@@H](C)O)C(=O)N[C@@H](CO)C(=O)O` [TAALS, reference compound] gave a Kd of 1400 nM.

`CC(C)C[C@H](NC(=O)[C@H](C)NC(=O)[C@H](C)NC(=O)[C@@H](N)Cc1ccc(O)cc1)C(=O)N[C@@H](CCC(N)=O)C(=O)O` [YAALQ, NH2-Y-A-A-L-Q-OH] yielded a Kd of 98000 nM. In addition, the Ka1 (with 60 µM ATP, two-state model) worked out at 100.9 ± 1.5 M⁻¹ s⁻¹.
